Test results as given in patent US20250115612A1, “CERTAIN 2,5-DIAZABICYCLO[4.2.0]OCTANES AND OCTAHYDROFURO[3,4-B]PYRAZINES AS GLP-1 RECEPTOR MODULATORS” (ASTRAZENECA AB, priority 2021, published 2025).

By UniProt entry, the sequences of proteins in these tests, tags left out.
UniProt Q14432, whole entry: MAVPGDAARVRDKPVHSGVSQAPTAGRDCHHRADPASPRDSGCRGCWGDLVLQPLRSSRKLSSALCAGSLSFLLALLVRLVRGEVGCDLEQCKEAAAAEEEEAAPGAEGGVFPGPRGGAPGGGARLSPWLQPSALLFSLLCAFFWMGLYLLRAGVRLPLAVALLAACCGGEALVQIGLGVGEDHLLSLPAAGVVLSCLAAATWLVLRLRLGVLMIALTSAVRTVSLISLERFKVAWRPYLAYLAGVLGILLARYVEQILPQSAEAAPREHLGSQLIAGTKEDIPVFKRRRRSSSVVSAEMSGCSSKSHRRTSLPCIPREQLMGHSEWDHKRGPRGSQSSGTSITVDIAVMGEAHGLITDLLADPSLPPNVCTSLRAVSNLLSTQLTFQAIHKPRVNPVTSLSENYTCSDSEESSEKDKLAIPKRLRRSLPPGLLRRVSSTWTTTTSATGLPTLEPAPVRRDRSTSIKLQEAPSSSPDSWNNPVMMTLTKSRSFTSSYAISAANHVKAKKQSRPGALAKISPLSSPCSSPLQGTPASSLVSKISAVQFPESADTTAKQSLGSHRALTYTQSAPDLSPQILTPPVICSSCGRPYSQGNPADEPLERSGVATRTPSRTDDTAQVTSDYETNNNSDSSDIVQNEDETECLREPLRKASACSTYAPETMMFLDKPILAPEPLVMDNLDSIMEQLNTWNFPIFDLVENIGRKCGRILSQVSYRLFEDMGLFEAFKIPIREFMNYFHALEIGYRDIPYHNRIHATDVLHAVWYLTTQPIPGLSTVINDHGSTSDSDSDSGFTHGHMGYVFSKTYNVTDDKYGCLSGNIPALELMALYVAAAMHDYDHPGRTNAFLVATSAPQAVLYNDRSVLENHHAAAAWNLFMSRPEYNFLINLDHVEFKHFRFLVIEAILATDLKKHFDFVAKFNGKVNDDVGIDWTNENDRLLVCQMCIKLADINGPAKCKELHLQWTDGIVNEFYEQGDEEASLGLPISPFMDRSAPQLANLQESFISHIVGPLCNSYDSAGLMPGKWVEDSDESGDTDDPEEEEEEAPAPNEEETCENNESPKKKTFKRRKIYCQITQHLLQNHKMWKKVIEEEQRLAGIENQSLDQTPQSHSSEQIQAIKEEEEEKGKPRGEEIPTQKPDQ

Biological target: human phosphodiesterase-3A (Homo sapiens, UniProt Q14432)
Assay: PDE3 assay (formation of 5'AMP from cAMP, SPA)
Settings: read-out: PDE3 IC50; human recombinant enzyme expressed in Sf9 cells
Description: Evaluation of the effects of compounds on the activity of the human phosphodiesterase-3A is quantified by measuring the formation of 5′AMP from cAMP using a human recombinant enzyme expressed in a clonal isolate of Spodoptera frugiperda cells (Sf9) cells.
The test compound, reference compound or water (control) are added to a buffer containing 40 mM tris(hydroxymethyl)aminomethane (Tris)/HCl (pH 7.4) and 8 mM MgCl2, 450 nMcAMP and 0.25 μCi [3H]cAMP.
Thereafter, the reaction is initiated by addition of the enzyme (about 1 U) and the mixture is incubated for 20 min at 22° C.
For basal control measurements, the enzyme is omitted from the reaction mixture.
Following incubation SPA beads are added. After 30 min at 22° C. under shaking, the amount of [^3H]5′AMP is quantified with a scintillation counter (Topcount, Packard).
The results are expressed as a percent inhibition of the control enzyme activity. The standard inhibitory reference compound is milrinone (CAS number 78415-72-2), which is tested in each experiment at several concentrations to obtain an inhibition curve from which its IC50 value is calculated.

Cc1cc(Cc2nc3ccc(C(=O)O)cc3n2C[C@@H]2CCO2)c(F)cc1-c1cccc(OCc2ccc(C#N)cc2F)n1
IC50: 5 µM
